Results from publication PMC3836723.

How the values were obtained:
TAP-tagged eRF3 (yeast) = TAP-tagged eRF3 (yeast) (UniProt P05453); experiment: pull-down; TAP-tagged chromosomal alleles; cells treated with 1% HCHO before harvest; WCE (1 mg protein) in buffer B (50 mM Tris-HCl pH 7.6, 150 mM NaCl, 0.05% Tween 20) with or without 0.1 mg/ml RNase A; IgG Sepharose 6 Fast Flow beads, 2 h at 4°C; eluted by boiling in SDS buffer or by TEV …; untagged wt strain as control; Western analysis
Myc-tagged RLI1 (yeast) = Myc-tagged RLI1 (yeast) (UniProt Q03195); experiment: co-IP; WCE of yeast YDH353 (chromosomal Myc-tagged RLI1), 500 µg total protein, 1 µl mouse anti-Myc-Tag IgG, with or without antibody; lysis in buffer A (30 mM HEPES pH 8.8, 20 mM KAc, 3 mM magnesium acetate, 1 mM DTT, 1% Nonidet P-40); Western analysis

percent of input co-purified (TAP-tagged eRF3 (yeast)): 18%
percent of input co-precipitated (% of the input) (Myc-tagged RLI1 (yeast)): 43
Substance: eIF3g/TIF35 (from UniProt Q04067 1-274) (natural protein)
